According to article PMC12363342, “Investigating the N-terminal linker histone H1 subtypes as substrates for JmjC lysine demethylases” (RSC Chemical Biology, 2025):

Legend:
[1] = test system: KDM4A; assay: LC-MS demethylation activity assay, KDM4A; assay type: biochemical, human; details: room temperature
Method: (§1) The substrate specificity of JmjC KDMs for H1 was examined using liquid chromatography coupled to mass spectrometry (LC-MS) assays. The H1 peptides (10 μM) were incubated with the recombinant KDM (2 μM) in HEPES buffer at pH 7.5 at room temperature for 2 h, in the presence of ferrous(II) ammonium sulfate (FAS, 10 μM), sodium ascorbate (LAA, 100 μM) and 2OG (20 μM), and then quenched with formic acid. N^ε-Methylated H3K9 and H3K36 peptides were used as positive controls (Fig. 3–5 and Fig. S2–S6).[26]
(§2) The catalytic domains of the JmjC KDMs used were recombinantly produced as reported in either Escherichia coli (KDM4AM1-L359,[38] KDM4DM1-L359,[39] KDM4EM1-R336,[30] KDM6BD1141–E1590[40] and KDM3CL2157-L2500) or Sf9 cells (KDM3AT515–S1317, KDM3B882–1761, and KDM5DM1-D775) as N-terminally His6-tagged proteins. […] To produce proteins, DNA sequences encoding for KDM3A, KDM3B and KDM5D were inserted into the pFB-LIC vector, containing a TEV-protease cleavable N-terminal 6x-histidine tag via ligation independent cloning (LIC). The resultant plasmids were transformed into baculovirus and Sf9 cells ([…]) which were infected with the virus stock. The cells were grown at 27 °C and 90 rpm for 70 h. Cells were then harvested and suspended in 100 mL of lysis buffer (50 mM HEPES-NaOH, pH 7.4, 500 mM NaCl, 20 mM imidazole, 0.5 mM Tris (2-carboxyethyl)phosphine (TCEP), 5% (v/v) glycerol). […] The supernatant was loaded onto a Ni-NTA gravity column, washed with 10 column volume of lysis buffer and eluted using the elution buffer (50 mM HEPES-NaOH, pH 7.4, 500 mM NaCl, 300 mM imidazole, 0.5 mM TCEP, 5% (v/v) glycerol). The eluted protein was further purified using S200 gel filtration column chromatography (50 mM HEPES-NaOH, pH 7.4, 150 mM NaCl, 0.5 mM TCEP and 5% glycerol). Protein purity was analysed by SDS-PAGE and further confirmed by mass spectrometry. Selected fractions were pooled, concentrated and stored at −80 °C.
(§3) All reagents were purchased from Sigma Aldrich and were of the highest grade available. Ferrous(II) ammonium sulfate (FAS) solutions were prepared freshly by dissolving FAS to 400 mM in 20 mM HCl with subsequent dilution to 1 mM using deionized water. Fresh 2OG (10 mM) and LAA (50 mM) solutions were prepared by dissolving the solids in deionised water. All enzyme reactions were performed in 384-well plates (Greiner Bio-One) with a final reaction volume of 50 μL. Substrate mixtures contained 50 mM HEPES pH 7.5, LAA (100 μM), FAS (10 μM), 2OG (20 μM) and an H1 isoform peptide (10 μM). Reactions were initiated by the addition of enzyme to a final concentration of 2.0 μM. After 2 h, the reactions were stopped by the addition of 5 μL of 10% (v/v) LC-MS grade formic acid (Fisher Scientific) to a final concentration of 1% (v/v). Product analyses were performed by liquid chromatography-mass spectrometry (LC-MS) using an Agilent 1290 infinity II LC system equipped with an Agilent 1290 multisampler and an Agilent 1290 high speed pump and connected to an Agilent 6550 accurate mass iFunnel quadrupole time of flight (Q-TOF) mass spectrometer. 1 μL of the reaction mixture was injected onto a 1.8 μm × 2.1 × 50 mm ZORBAX RRHD Eclipse Plus C18 column (Agilent). Solvent A consisted of HPLC grade water containing 0.1% (v/v) formic acid and solvent B consisted of MeCN containing 0.1% (v/v) formic acid. Peptides were separated using a stepwise gradient (0 min – 95% solvent A, 1.0 min – 80% solvent A, 3.0 min – 45% solvent A, 4.0 min – 45% solvent A, 5.0 min – 0% solvent A, 6.0 min – 0% solvent A, 7.0 min – 95% solvent A). This was followed by a 3 min post-run with 95% solvent A to re-equilibrate the column. All flow rates were 0.2 mL min^−1.

[2] = test system: KDM3B; assay: LC-MS demethylation activity assay, KDM3B; assay type: biochemical, human; details: 2 μM KDM, 10 μM H1/H3 peptide, 10 μM FAS, 100 μM LAA, 20 μM 2OG, 50 mM HEPES pH 7.5, 2 h, room temperature, T (tri-) initial methylation state
Method: as §1, §2
(§4) All reagents were purchased from Sigma Aldrich and were of the highest grade available. Ferrous(II) ammonium sulfate (FAS) solutions were prepared freshly by dissolving FAS to 400 mM in 20 mM HCl with subsequent dilution to 1 mM using deionized water. Fresh 2OG (10 mM) and LAA (50 mM) solutions were prepared by dissolving the solids in deionised water. All enzyme reactions were performed in 384-well plates (Greiner Bio-One) with a final reaction volume of 50 μL. Substrate mixtures contained 50 mM HEPES pH 7.5, LAA (100 μM), FAS (10 μM), 2OG (20 μM) and an H1 isoform peptide (10 μM). Reactions were initiated by the addition of enzyme to a final concentration of 2.0 μM. After 2 h, the reactions were stopped by the addition of 5 μL of 10% (v/v) LC-MS grade formic acid (Fisher Scientific) to a final concentration of 1% (v/v). […]

[3] = target: T1, KDM4D (Homo sapiens, UniProt Q6B0I6); assay: LC-MS demethylation activity assay, KDM4D; assay type: biochemical; details: room temperature
T1 construct: KDM4AM1-L359,[38]; KDM4DM1-L359,[39]; KDM4EM1-R336,[30]; His6 (N); made in house; host or cells: Escherichia coli
T1 sequence (Q6B0I6 1-359): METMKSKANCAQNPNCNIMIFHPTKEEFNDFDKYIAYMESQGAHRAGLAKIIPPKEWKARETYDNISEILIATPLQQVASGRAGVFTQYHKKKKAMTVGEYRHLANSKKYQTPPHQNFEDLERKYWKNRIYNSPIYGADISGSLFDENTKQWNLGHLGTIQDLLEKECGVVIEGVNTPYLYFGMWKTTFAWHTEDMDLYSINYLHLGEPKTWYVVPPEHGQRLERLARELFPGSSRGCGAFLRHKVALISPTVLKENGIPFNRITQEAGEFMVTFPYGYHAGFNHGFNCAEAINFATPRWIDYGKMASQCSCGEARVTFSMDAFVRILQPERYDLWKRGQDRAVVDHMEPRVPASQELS
Method: as §1, §2, §3

[4] = test system: KDM3A; assay: LC-MS demethylation activity assay, KDM3A; assay type: biochemical, human; details: 2 μM KDM, 10 μM H1/H3 peptide, 10 μM FAS, 100 μM LAA, 20 μM 2OG, 50 mM HEPES pH 7.5, 2 h, room temperature, T (tri-) initial methylation state
Method: as §1, §2, §4

[5] = test system: KDM5D; assay: LC-MS demethylation activity assay, KDM5D; assay type: biochemical, human; details: 2 μM KDM, 10 μM H1/H3 peptide, 10 μM FAS, 100 μM LAA, 20 μM 2OG, 50 mM HEPES pH 7.5, 2 h, room temperature, T (tri-) initial methylation state
Method: as §1, §2, §4

[6] = test system: KDM6B; assay: LC-MS demethylation activity assay, KDM6B; assay type: biochemical, human; details: 2 μM KDM, 10 μM H1/H3 peptide, 10 μM FAS, 100 μM LAA, 20 μM 2OG, 50 mM HEPES pH 7.5, 2 h, room temperature, T (tri-) initial methylation state
Method: as §1, §2, §4

[7] = test system: KDM3C; assay: LC-MS demethylation activity assay, KDM3C; assay type: biochemical, human; details: 2 μM KDM, 10 μM H1/H3 peptide, 10 μM FAS, 100 μM LAA, 20 μM 2OG, 50 mM HEPES pH 7.5, 2 h, room temperature, T (tri-) initial methylation state
Method: as §1, §2, §4

[8] = 2 μM KDM4A, 10 μM peptide, standard conditions, 2 h
[9] = 2 μM KDM, 10 μM H1/H3 peptide, 10 μM FAS, 100 μM LAA, 20 μM 2OG, 50 mM HEPES pH 7.5, 2 h, T (tri-) initial methylation state
[10] = 2 μM KDM4D, 10 μM peptide, standard conditions, 2 h

ARTKQTARKme3STGGKA [Peptide H3K9me3, histone H3 residues 1-15 peptide with tri-methylated K9; commercial positive control, reference compound]
di-methylated product formed by KDM4A [1, 8]: ~53%
mono-methylated product formed by KDM4A [1, 8]: > 10%
KDM4A demethylation activity, T [1, 9]: ● [green] (green dots indicate good demethylation (>50% conversion))
KDM3B demethylation activity, T [2]: ● [red]
substrate conversion (demethylation) by KDM4D ([3]; 2 μM KDM4D, 10 μM peptide, 10 μM FAS, 100 μM LAA, 20 μM 2OG, HEPES pH 7.5, 2 h): ~53%
di-methylated product formed by KDM4D [3, 10]: ~35%
mono-methylated product formed by KDM4D [3, 10]: ~18%
KDM4D demethylation activity, T [3, 9]: ● [green] (green dots indicate good demethylation (>50% conversion))
KDM3A demethylation activity, T [4]: ● [red]
KDM5D demethylation activity, T [5]: ● [red]
KDM6B demethylation activity, T [6]: ● [red]
KDM3C demethylation activity, T [7]: ● [red]
